Common to all, as to type: biochemical
One experiment deals with PDK1 enzyme (Homo sapiens, UniProt O15530). Nature of the experiment: PDK1 kinase inhibition assay (33P phosphorylation of synthetic peptide, filter plate). The conditions noted are these: read-out: PDK1 IC50, 0.01 mM ATP, 60 min at 30° C.
A further experiment concerns the target GST-Chk1 enzyme (Homo sapiens, UniProt O14757). Put plainly: Chk1 kinase inhibition assay (33P phosphorylation of Chktide, filter plate). The conditions noted are these: read-out: Chk1 IC50, 0.01 mM ATP, 11 nM GST-Chk1, 40 minutes at 30° C.
In experiment [1] the target is CDK-2 enzyme, complexed with cyclin A (Homo sapiens, UniProt P24941). Nature of the experiment: CDK2 enzyme inhibition assay (33P phosphorylation of peptide […], filter plate). The conditions noted are these: read-out: CDK2 IC50; CDK-2/cyclin A, 0.1 mM ATP, 40 min at 30° C.

Sequences of proteins named here, by UniProt entry; tags and fusion partners are left off.
UniProt O15530, whole entry: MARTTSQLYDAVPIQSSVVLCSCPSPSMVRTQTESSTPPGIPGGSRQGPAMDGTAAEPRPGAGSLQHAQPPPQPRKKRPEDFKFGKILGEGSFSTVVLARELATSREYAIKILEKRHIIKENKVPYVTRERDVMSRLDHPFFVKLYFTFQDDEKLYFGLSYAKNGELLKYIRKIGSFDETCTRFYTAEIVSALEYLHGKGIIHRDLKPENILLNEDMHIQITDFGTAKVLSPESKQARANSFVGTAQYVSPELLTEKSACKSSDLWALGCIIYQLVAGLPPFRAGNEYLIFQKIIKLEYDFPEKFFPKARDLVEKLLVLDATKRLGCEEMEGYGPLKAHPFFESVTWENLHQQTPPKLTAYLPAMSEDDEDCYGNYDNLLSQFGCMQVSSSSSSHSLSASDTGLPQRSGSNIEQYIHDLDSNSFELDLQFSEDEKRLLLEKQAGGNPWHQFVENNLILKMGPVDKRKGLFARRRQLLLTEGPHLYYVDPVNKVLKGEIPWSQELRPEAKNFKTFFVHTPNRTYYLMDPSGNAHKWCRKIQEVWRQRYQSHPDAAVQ
UniProt O14757, whole entry: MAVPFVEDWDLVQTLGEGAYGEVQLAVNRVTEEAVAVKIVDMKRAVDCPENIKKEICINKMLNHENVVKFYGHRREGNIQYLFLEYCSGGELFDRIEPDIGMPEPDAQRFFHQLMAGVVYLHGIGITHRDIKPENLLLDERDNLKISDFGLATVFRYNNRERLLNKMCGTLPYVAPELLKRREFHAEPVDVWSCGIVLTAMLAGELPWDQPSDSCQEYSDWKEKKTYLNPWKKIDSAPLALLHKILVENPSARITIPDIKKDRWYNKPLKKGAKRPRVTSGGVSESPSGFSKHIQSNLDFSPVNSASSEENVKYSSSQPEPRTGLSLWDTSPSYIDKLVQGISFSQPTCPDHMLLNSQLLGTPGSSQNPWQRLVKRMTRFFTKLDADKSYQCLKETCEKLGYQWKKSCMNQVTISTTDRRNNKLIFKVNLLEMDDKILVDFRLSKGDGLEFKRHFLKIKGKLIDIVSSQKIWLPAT

The structures appear in SMILES notation. Read-outs that look alike come from different tables or passages of the source.

Here are results for four compounds from US20070179161A1, “Pyrazolopyrimidine compounds and their use in medicine” (VERNALIS (CAMBRIDGE) LIMITED., priority 2003, published 2007).

Broadly, the IC50 is the midpoint of a concentration-inhibition curve. With `CCc1cnn2c(Nc3ccc(C(N)=O)cc3)cc(N[C@H]3CC[C@@H](N)CC3)nc12`, the half-maximal inhibitory concentration (IC50) at PDK1 enzyme turned out to be 11.3 µM.
With `COc1cc(Nc2cc(N[C@H]3CC[C@H](N)CC3)nc3c(Br)cnn23)ccc1S(=O)(=O)N(C)C`, the IC50 is 9 µM on GST-Chk1 enzyme and 18 µM on PDK1 enzyme.
For the compound `N[C@H]1CC[C@H](Oc2cc(Nc3ccc(S(=O)(=O)c4ccccc4)cc3)n3ncc(Cl)c3n2)CC1` (relative stereo), the IC50 in experiment [1] is 0.015 µM.
With `CC(C)c1cnn2c(Nc3ccc(S(=O)(=O)N(C)CCO)cc3)cc(OCCN(C)C)nc12` [Example 39], the half-maximal inhibitory concentration (IC50) was 46.8 µM at GST-Chk1 enzyme (tested form: HCl) and > 200 µM on PDK1 enzyme (tested form: HCl).
